## Measured affinities in a library of Ab-95 light chain variants

All variants were tested on one target, the spike HR2 peptide PDVDLGDISGINAS (SARS-CoV-2).

Parent: Ab-95, a human scFv built as VH, a 15-residue (Gly4Ser)3 linker, VL. Only the CDRs of the light chain vary.
VH: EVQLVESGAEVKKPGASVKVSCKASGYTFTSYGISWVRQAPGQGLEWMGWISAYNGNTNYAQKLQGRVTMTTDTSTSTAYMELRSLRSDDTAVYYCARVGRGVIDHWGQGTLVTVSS
VL: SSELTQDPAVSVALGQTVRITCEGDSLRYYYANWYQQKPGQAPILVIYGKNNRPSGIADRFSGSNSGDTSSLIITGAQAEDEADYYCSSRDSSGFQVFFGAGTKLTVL

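The library (AAYL52) carries one to three amino acid substitutions per variant, with no insertions or deletions. In AlphaSeq, yeast of one mating type display the scFv and yeast of the other type display the target. Binding brings cells together so that they mate, and sequencing counts the barcode pairs among the diploids. Each replicate has its own calibration line, from reference interactions of the BCL2 family. Each pool was mated in three replicate cultures.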

The parent's light chain CDRs are EGDSLRYYYAN, GKNNRPS, SSRDSSGFQVF; each variant's own CDRs replace them letter for letter.
Every variant below is changed at Y31 of the VL (sequential numbering).
Values are log10 of the apparent Kd in nM; lower means stronger binding.
Averages over replicates are reported, and they cover detected replicates only.
An entry "nd" has no value in the source: the pair was not observed among the diploids in any replicate. This suggests poor binding but is not conclusive.
Three control strains display no target. For library AAYL52, 28% of the pairings with them gave a signal, with a median of 3.91 and one signal in twenty below 2.90, so weak values seen in few replicates may be background.
Parent in this assay: reference entry 2.31, copy in this library 2.25.

With SGDSLRYYRAN / GKNNRPC / SSRDSSGFQVF the result was 2.70 (3 of 3 replicates). With EGDSLRYYHAN / GKNNRPS / YSRDSSFFQVF the result was 1.70 (3 of 3 replicates). The variant EGDSLRYYGAN / GKNNRPH / SSRDSGGFQVF showed 1.92 (3 of 3 replicates). The variant ENDSLRYYNAN / IKNNRPS / SSRDSSGFQVF showed 4.67 (1 of 3 replicates). For EGDSLRYYEAN / GKNNRPS / SSPDSSGFQVR, the assay gave 4.00 (1 of 3 replicates). The variant EGDSLRYYRAN / GKNNRIS / SSRDLSGFQVF gave 4.13 (3 of 3 replicates). With EGDSLRYYFAN / GCNNRPS / SSRDSSGFQRF the result was 3.59 (3 of 3 replicates). The variant EGDSLLYYIAN / GKNNRPS / SSTDSSGFQVF gave 3.81 (1 of 3 replicates).

The variant EGDSLRYYEAN / GKNNEPS / SSRYSSGFQVF showed 3.44 (1 of 3 replicates). With ELDSLRYDSAN / GKNNRPS / SSRDSSGFQVF the result was 2.09 (3 of 3 replicates). For EGDSLRVYQAN / GKNNRPS / SSRDSFGFQVF, the assay gave 3.97 (3 of 3 replicates). For EGDSGRYYFAN / GKNNAPS / SSRDSSGFQVF, the assay gave 4.41 (1 of 3 replicates). The variant EGDSLRYYTAN / GKCNRPS / SSRTSSGFQVF gave 3.33 (2 of 3 replicates). With EGDSLRYYDAT / GANNRPS / SSRDSSGFQVF the result was 2.62 (3 of 3 replicates). The variant EGDSLRYYEHN / GKNLRPS / SSRDSSGFQVF showed 2.96 (3 of 3 replicates). The variant EGDYLRYYNAN / GKNNRES / SSRDSSGFQVF showed 2.68 (3 of 3 replicates).

With EGDSLNYYAAN / GKNNRPM / SSRDSSGFQVF the result was 1.33 (3 of 3 replicates). The variant EDDSLRYYSAN / GKNNRPS / SSRDSSMFQVF gave 3.17 (3 of 3 replicates). The variant EGDSLRYYPAN / IKNNRPV / SSRDSSGFQVF showed 3.99 (2 of 3 replicates). The variant EGDSLRYYEAN / GKNNRLS / SSRDSSGFQVF gave 1.35 (3 of 3 replicates). The variant EADSLRYYQAN / GKNNRPS / SSRDWSGFQVF gave 3.25 (3 of 3 replicates). For EGDSLRYYIAN / GKNIRPS / SSRDSSGFQVF, the assay gave 3.76 (2 of 3 replicates). The variant EGDSLRYYRAN / GKNNGCS / SSRDSSGFQVF gave 4.49 (3 of 3 replicates). For EGDSLRYYVKN / GKNNRPS / SGRDSSGFQVF, the assay gave 2.40 (3 of 3 replicates).

The variant EGDSLWYYCAN / AKNNRPS / SSRDSSGFQVF showed 3.87 (2 of 3 replicates). For EGDSLRYYAAC / GKNNRPS / RSRDSSGFQVF, the assay gave 4.29 (3 of 3 replicates). With EGDSLRYYKAN / GNNNRPS / SSRDCSGFQVF the result was 1.94 (3 of 3 replicates). The variant WGDLLRYYLAN / GKNNRPS / SSRDSSGFQVF showed 3.15 (2 of 3 replicates). The variant EGDSLRKYVAN / GKNNTPS / SSRDSSGFQVF showed 3.03 (3 of 3 replicates). With EGDVLREYHAN / GKNNRPS / SSRDSSGFQVF the result was 3.46 (3 of 3 replicates). The variant EGDSLRYYNAN / GKNNRPM / SSRDSSGFQPF showed 1.47 (3 of 3 replicates). With EGDSLRYYIKN / GKNNRPS / SSRDFSGFQVF the result was 4.00 (3 of 3 replicates).

The variant EGDSLRYYTAN / GKNNRPS / SSRDSSGGQVI showed 3.24 (2 of 3 replicates). With EGDSLRYYTAN / GKNNRPS / SSRKGSGFQVF the result was nd (0 of 3 replicates). For EGDSLFYYFAN / GKNNIPS / SSRDSSGFQVF, the assay gave 4.26 (2 of 3 replicates). For EGDSLRIYRAN / GKTNRPS / SSRDSSGFQVF, the assay gave nd (0 of 3 replicates). With EGDSLRYYFAN / GKNVRPS / ESRDSSGFQVF the result was 2.47 (3 of 3 replicates). With EGDSLRYYRAN / GQNNRPS / SERDSSGFQVF the result was 3.75 (3 of 3 replicates).

Excerpt, the first 3 entries:

The variant SGDSLRYYRAN / GKNNRPC / SSRDSSGFQVF showed 2.70 (3 of 3 replicates).
The variant EGDSLRYYHAN / GKNNRPS / YSRDSSFFQVF showed 1.70 (3 of 3 replicates).
The variant EGDSLRYYGAN / GKNNRPH / SSRDSGGFQVF showed 1.92 (3 of 3 replicates).

From the AlphaSeq antibody data of Engelhart et al. 2022 (doi:10.1038/s41597-022-01779-4), copy in the FLAb collection.